ChEMBL document CHEMBL4043276, “Design, synthesis and biological evaluation of 2-acetyl-5-O-(amino-alkyl)phenol derivatives as multifunctional agents for the treatment of Alzheimer's disease” (Bioorg Med Chem Lett, 2017)

Protein sequences, listed by entry. Tags and fused reporters are not part of them.
UniProt P27338, whole entry: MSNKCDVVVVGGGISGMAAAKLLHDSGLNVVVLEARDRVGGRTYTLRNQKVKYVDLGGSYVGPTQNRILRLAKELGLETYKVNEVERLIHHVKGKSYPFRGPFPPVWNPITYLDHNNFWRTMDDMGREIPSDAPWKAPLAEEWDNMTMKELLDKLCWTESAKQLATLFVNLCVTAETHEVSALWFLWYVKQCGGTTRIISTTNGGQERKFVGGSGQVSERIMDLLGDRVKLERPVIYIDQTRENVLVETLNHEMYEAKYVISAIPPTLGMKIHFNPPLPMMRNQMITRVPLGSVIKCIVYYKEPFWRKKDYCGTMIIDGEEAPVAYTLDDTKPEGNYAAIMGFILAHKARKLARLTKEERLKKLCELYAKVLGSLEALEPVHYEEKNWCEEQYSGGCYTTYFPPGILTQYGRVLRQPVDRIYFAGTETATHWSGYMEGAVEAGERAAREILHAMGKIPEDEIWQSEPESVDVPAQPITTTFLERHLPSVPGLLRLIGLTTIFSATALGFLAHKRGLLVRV

Columns and labels:
[1] = target: Amine oxidase [flavin-containing] B (Homo sapiens, UniProt P27338); assay: Inhibition of recombinant human MAO-B expressed in insect cell microsomes using kynuramine as substrate by fluorescence spectrophotometric method
[2] = species: Homo sapiens; assay: Selectivity index, ratio of IC50 for recombinant human MAO-A to IC50 for recombinant human MAO-B

IC50 [1]: 2.9 nM | Ratio IC50 [2]: 17500
SMILES: CC(=O)c1ccc(OCc2cccc(F)c2)cc1O
